Binding of CDR-mutated scFvs to a peptide of the spike HR2 region

Binding partner: SARS-CoV-2 spike HR2 peptide, sequence PDVDLGDISGINAS.

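Phage display of a naive human antibody library on the peptide gave the parent. This is the validation round: designs drawn from the data on random variants, tested in the same kind of assay. Group labels follow the data file (Ctrl: baseline library sampled from a position-specific scoring matrix, with some repeated check sequences; GP: Gaussian process model; GPLM: also part of the Gaussian process libraries; HC: hill climbing; Gen: genetic algorithm; a sequence that several methods proposed may carry one label only). In AlphaSeq, yeast of one mating type display the scFv and yeast of the other type display the target. Binding brings cells together so that they mate, and sequencing counts the barcode pairs among the diploids. Scores were corrected for input abundance and mapped to Kd with protein pairs of known affinity run in the same pool. Mating was done six times.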

The variants keep the light chain, the linker and the frameworks of Ab-14 (scFv order VH, a 15-residue (Gly4Ser)3 linker, VL).
VH: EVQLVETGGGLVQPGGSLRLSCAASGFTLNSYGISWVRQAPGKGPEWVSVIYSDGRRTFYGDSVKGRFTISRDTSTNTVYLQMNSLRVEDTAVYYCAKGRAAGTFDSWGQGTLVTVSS
VL: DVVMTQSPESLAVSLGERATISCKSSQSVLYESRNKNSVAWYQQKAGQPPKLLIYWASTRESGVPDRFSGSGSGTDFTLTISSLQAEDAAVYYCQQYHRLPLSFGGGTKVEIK

Each variant's VH is given in full.
Affinities are written as log10 Kd with Kd in nM; a lower number is a better binder.
A pair that was not seen in that replicate is written "ND"; this usually means weak binding, but a binder can also be missed.
The authors averaged sequences with at least three values out of six and counted those with two or fewer as poor binders.

VH	group	replicates, log10 nM	control signals
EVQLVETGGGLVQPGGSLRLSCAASGFTLNEYGISWVRQAPGKGPEWVSVIYSDGRRTFYEDSVKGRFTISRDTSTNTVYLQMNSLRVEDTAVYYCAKGRAAGTFDSWGQGTLVTVSS	Ctrl+GP_HC	0.49 -0.49 -0.80 -0.60 0.75 -0.38; 1.13 1.38 0.37 -0.32 0.58 1.30	0/36
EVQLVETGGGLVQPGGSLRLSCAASGFTLNSYGISWVRQAPGKGPEWVSVIYSDGMRTAYDDSVDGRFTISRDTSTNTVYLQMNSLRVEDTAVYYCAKGRSAGTFDSWGQGTLVTVSS	Ctrl	ND 2.25 2.39 3.32 ND 3.39	1/18 (2.71)
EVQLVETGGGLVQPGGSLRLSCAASGNTLNSYGISWVRQAPGKGPEWVSVIYSDGRRTFYGDNVKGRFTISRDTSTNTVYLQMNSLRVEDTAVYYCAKGFASGTFDIWGQGTLVTVSS	Ctrl	ND ND ND ND ND ND	1/18 (2.19)
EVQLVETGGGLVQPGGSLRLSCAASGFTLNEYGISWVRQAPGKGPEWVSVIYSDGCRTFYGDSVKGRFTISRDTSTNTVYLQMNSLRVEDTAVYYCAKGRAADTFHSWGQGTLVTVSS	Ctrl	ND ND ND ND ND ND; ND ND ND ND ND ND; ND ND ND ND ND ND	1/54 (0.85)
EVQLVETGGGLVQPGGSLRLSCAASGFTLESYGISWVRQAPGKGPEWVSVIYSDGRRTFYGDSVKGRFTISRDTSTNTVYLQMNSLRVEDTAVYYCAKGSVAGTFDSWGQGTLVTVSS	Ctrl	1.39 1.49 0.75 0.90 1.07 0.91	1/18 (3.19)
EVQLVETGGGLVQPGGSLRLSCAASGTTLNSFGISWVRQAPGKGPEWVSVIYSDGRRTFYGDSVKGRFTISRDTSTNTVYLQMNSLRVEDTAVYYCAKHREAVLFDSWGQGTLVTVSS	Ctrl	ND ND ND ND ND ND	0/18
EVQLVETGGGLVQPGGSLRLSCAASGYTLLSYGISWVRQAPGKGPEWVSVIYSDGRRTFYGDSVKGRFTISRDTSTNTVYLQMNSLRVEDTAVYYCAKDQAALTFDSWGQGTLVTVSS	Ctrl	ND ND ND ND ND ND	0/18
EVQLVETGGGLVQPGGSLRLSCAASGFTHNSYGISWVRQAPGKGPEWVSVIYSDGRRTYYGDSVKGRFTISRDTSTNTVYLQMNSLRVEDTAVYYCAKGRAAGTFDSWGQGTLVTVSS	Ctrl	ND ND ND ND 1.66 ND	1/18 (1.26)
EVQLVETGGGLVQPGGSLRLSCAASGFWMNEYGISWVRQAPGKGPEWVSVIYSDGRRTFYADSVKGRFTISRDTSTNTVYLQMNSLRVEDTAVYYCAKGRAAGTFHSWGQGTLVTVSS	Ctrl	ND ND ND ND ND ND	0/18
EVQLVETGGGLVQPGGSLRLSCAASGFTLNSYGISWVRQAPGKGPEWVSVIYSDGRRTFYGDSVKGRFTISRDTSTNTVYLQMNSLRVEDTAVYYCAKGQEAGTFDSWGQGTLVTVSS	Ctrl+GPLM_Gen	2.47 1.84 0.54 0.95 0.76 0.89; 0.96 0.63 0.91 0.65 0.79 0.70	1/36 (2.05)
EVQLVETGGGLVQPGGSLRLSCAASGFDLESYGISWVRQAPGKGPEWVSVIYSDGRRTFYGDAVKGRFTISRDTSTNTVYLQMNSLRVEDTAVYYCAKGRAAGTGDSWGQGTLVTVSS	Ctrl	ND ND ND ND ND ND	1/18 (2.16)
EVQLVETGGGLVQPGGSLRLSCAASGFTLNDYGISWVRQAPGKGPEWVSVIYSDGRRTSYGDAVKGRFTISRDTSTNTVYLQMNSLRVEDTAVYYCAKGRAAGTFWSWGQGTLVTVSS	Ctrl	ND ND 1.79 ND ND ND	1/18 (1.86)
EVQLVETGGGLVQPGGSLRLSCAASGFTLNSYGISWVRQAPGKGPEWVSVIYSDGRRTMYGDSVKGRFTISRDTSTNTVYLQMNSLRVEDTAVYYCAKGRAAGPFDSWGQGTLVTVSS	Ctrl	ND ND ND ND ND ND	0/18
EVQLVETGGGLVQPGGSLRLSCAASGFTLNSYGISWVRQAPGKGPEWVSVIYSDGRRTAYGDSVKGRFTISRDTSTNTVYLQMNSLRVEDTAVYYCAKWRAAGTFDSWGQGTLVTVSS	Ctrl	0.62 1.15 0.59 0.54 0.86 0.97	1/18 (3.81)
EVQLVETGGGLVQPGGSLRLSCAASGFTLNSYGISWVRQAPGKGPEWVSVIYSDGRRTFYNDSVKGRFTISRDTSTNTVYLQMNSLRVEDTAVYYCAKNRAAGTFDSWGQGTLVTVSS	Ctrl	ND ND ND ND ND ND	0/18

The first 2 variants above that were never detected:

VH	group	replicates, log10 nM	control signals
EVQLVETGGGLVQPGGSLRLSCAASGNTLNSYGISWVRQAPGKGPEWVSVIYSDGRRTFYGDNVKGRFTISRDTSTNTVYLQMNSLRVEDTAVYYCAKGFASGTFDIWGQGTLVTVSS	Ctrl	ND ND ND ND ND ND	1/18 (2.19)
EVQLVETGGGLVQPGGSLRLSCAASGFTLNEYGISWVRQAPGKGPEWVSVIYSDGCRTFYGDSVKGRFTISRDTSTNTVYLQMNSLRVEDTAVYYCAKGRAADTFHSWGQGTLVTVSS	Ctrl	ND ND ND ND ND ND; ND ND ND ND ND ND; ND ND ND ND ND ND	1/54 (0.85)

A sequence measured in both rounds can read differently, since the two assays cover different ranges.
Some sequences occur more than once in the pool; their replicates are listed entry by entry, parted by semicolons.
As a blank, each scFv also met three strains without target: over all heavy chain designs, 1% of these pairings were detected, typically at 2.08 and seldom below 0.84. For each scFv, signals with the empty controls are counted beside the result, with their mean in brackets.

Values reported by Li et al. 2023, doi:10.1038/s41467-023-39022-2 (FLAb copy).